The values that follow come from article PMC12207880 (The Oncologist, 2025).

SMILES strings stand for the structures. “Also recorded” adds a separate entry of the source.

This data set is described as follows: Phase I trial: plasma pharmacokinetics of SPH3643 after single and multiple dosing of SPH4336. The class given is in vivo, human. To be noted: for dose proportionality of plasma exposure (Cmax, AUC0-last): 50-600 mg.
[1] abbreviates: single dose, doses of 50-600 mg, range over cohorts.

Take `Cc1nc2c(F)cc(-c3nc(Nc4ccc5c(n4)CCN(CCN(C)C)C5)ncc3F)cc2n1C1CC1`: the “dose proportionality of plasma exposure (Cmax, AUC0-last)” value was “increased proportionally within the range of ~50-400 mg but did not increase further at 600 mg; also recorded: increased proportionally within the range of 50-400 mg, except at 600 mg”. Moreover, the “dose proportionality of plasma exposure (Cmax, AUC0-last)” value (listed as SHP4336) is on record as “increased proportionally with a dose ranging from 50 to 400 mg, but it did not increase from 400 to 600 mg”. Moreover, the Ctrough (multiple dosing 400 mg QD, n=7, geometric mean (variation %)) is listed as 58.2 (37.5%, n=7) ng/mL. Under setting [1], the “geometric mean terminal t1/2” value lay within 52.8 to 72.3 h and the “median Tmax” value lay in the range of 10.0 to 47.8 h.
